This is a selection; strong and weak results do not stand in their true shares. Some of these compounds have results that are not shown, active ones among them. Calls of active or inactive are those of the source.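 How the source made its calls: active means inhibition above the mean inhibition of all tested compounds plus 3 SD, set per campaign (cut at about 52% in these data); inactive means the rest.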
Target: Nuclear receptor coactivator 2 (Homo sapiens) (UniProt Q15596)
Assay: inhibition of GAL4-SRC2 driven luciferase reporter, primary screen, SRC2 inhibitor project, cell-based, luminescence (AID 651957);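 further: 0% = DMSO treated cells and 100% = cells given Gossypol at 36 µM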
Details: HEK293 GAL4-SRC2 luciferase reporter, at 9 µM, hits give high values

The chains behind the UniProt entries cited, without tags or fusion partners.
UniProt Q15596, whole entry: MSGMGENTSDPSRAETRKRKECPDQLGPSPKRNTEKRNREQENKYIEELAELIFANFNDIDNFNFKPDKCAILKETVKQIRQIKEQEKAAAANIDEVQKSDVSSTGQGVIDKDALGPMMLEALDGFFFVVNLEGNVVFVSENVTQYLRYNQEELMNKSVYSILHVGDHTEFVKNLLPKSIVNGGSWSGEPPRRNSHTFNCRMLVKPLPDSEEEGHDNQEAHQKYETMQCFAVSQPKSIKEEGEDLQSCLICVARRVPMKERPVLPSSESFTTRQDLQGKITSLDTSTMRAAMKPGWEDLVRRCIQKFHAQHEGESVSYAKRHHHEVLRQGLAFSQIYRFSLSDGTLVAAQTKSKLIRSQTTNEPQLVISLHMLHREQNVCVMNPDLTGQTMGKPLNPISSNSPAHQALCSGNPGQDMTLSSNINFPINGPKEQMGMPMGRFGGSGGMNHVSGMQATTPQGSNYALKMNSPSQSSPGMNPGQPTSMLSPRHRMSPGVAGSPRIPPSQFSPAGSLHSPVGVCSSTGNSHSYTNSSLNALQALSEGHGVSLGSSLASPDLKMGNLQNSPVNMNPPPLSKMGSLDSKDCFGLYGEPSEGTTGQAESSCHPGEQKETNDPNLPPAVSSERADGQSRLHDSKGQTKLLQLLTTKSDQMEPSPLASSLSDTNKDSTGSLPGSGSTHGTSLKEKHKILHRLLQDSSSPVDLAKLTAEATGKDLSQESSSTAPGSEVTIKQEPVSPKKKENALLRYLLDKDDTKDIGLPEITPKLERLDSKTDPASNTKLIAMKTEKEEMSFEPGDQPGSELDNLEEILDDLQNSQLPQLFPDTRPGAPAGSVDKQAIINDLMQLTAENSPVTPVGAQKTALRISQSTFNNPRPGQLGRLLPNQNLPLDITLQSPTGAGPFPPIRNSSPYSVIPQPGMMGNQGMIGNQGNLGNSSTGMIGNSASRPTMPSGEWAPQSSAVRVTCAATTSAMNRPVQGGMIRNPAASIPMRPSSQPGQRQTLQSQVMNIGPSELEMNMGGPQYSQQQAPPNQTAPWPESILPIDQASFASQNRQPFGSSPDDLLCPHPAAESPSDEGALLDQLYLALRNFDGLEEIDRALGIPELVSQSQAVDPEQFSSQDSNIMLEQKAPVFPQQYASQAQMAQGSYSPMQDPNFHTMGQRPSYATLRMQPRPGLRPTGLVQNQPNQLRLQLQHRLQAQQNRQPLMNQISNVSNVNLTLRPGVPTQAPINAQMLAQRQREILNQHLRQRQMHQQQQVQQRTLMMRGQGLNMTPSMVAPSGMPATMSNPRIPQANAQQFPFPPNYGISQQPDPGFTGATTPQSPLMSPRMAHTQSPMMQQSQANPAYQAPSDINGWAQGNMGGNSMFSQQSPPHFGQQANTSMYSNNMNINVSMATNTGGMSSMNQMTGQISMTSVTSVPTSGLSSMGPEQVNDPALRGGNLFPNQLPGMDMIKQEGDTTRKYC

Question: How did the inhibition turn out when `CN(C)C1(CNC(=O)c2ccc(Br)cc2)CCCCC1` was run?
Answer: inactive: -3.98%

Question: With `COc1cc(C(=O)NCC2(N(C)C)CCCCC2)c([N+](=O)[O-])cc1OC` as the molecule, how does the inhibition read?
Answer: inactive: 17.4%

Question: With `COc1ccc(Cl)cc1C(=O)NCC1(N(C)C)CCCCC1` as the molecule, how does the inhibition read?
Answer: inactive: 16.8%

Question: Which inhibition does the source give for `COc1cccc(C(=O)NCC2(N3CCCCC3)CCCCC2)c1` here?
Answer: inactive: 6.76%

Question: How did the inhibition turn out when `O=C(NCC1(N2CCCCC2)CCCCC1)c1cccc(Cl)c1` was run?
Answer: inactive: -7.16%

Question: With `O=C(OC1CN2CCC1CC2)C(CO)(c1ccccc1)c1ccccc1` (stereo unspecified) as the molecule, how does the inhibition read?
Answer: inactive: -6.41%

Question: With `COc1ccc(Br)c(C(=O)NCC2(N3CCCCC3)CCCCC2)c1` as the molecule, how does the inhibition read?
Answer: inactive: 26.3%

Question: Which inhibition does the source give for `C=C(C)C#CC(O)(C(=O)OC1CCN(C)CC1)c1ccccc1` (stereo unspecified) here?
Answer: inactive: -4.89%

Question: For `CN(C)c1cccc(C(=O)NCC2(N(C)C)CCCCC2)c1`, which inhibition is on record?
Answer: inactive: 7.95%

Question: Which inhibition does the source give for `O=C(OCCN1CCCC1)C(O)(c1ccccc1)c1ccccc1` here?
Answer: inactive: -4.45%

Question: `CC(C)Oc1ccc(C(=O)NCC2(N(C)C)CCCCC2)cc1` was tested. Which inhibition did it give?
Answer: inactive: -35.1%

Question: For `O=C(NCC1(N2CCCCC2)CCCCC1)c1cc([N+](=O)[O-])ccc1Cl`, which inhibition is on record?
Answer: inactive: 14.8%

Question: How did the inhibition turn out when `CN1[C@@H]2CC[C@H]1CC(OC(=O)C(O)(c1ccccc1)c1ccccc1)C2` (stereo partly specified) was run?
Answer: inactive: -17%

Question: How did the inhibition turn out when `CC(C)N1C(=O)CC2(CCN(CCOC(=O)C(O)(c3ccccc3)c3ccccc3)CC2)C1=O` was run?
Answer: inactive: 10.8%

Question: `COc1cc(SC)ccc1C(=O)NCC1(N(C)C)CCCCC1` was tested. Which inhibition did it give?
Answer: inactive: -3.4%

Question: With `CCN(CC)CC(C)C(C)OC(=O)C(O)(c1ccccc1)c1ccccc1` (stereo unspecified) as the molecule, how does the inhibition read?
Answer: inactive: -0.33%

Question: Which inhibition does the source give for `Cc1ccc(C(=O)NCC2(N3CCCCC3)CCCCC2)cc1` here?
Answer: inactive: -5.31%

Question: With `CN(C)c1ccc(C(=O)NCC2(N(C)C)CCCCC2)cc1` as the molecule, how does the inhibition read?
Answer: inactive: -16.7%

Question: How did the inhibition turn out when `CN(C)C1CCCC1OC(=O)C(O)(c1ccccc1)c1ccccc1` (stereo unspecified) was run?
Answer: inactive: -2.55%

Question: With `Cc1ccccc1C(=O)NCC1(N2CCCCC2)CCCCC1` as the molecule, how does the inhibition read?
Answer: inactive: 14.8%

Question: How did the inhibition turn out when `O=C(NCC1(N2CCCCC2)CCCCC1)c1cc(F)c(F)cc1Cl` was run?
Answer: inactive: -52%

Question: With `C=CCN1CCN(CCOC(=O)C(O)(c2ccccc2)c2ccccc2)CC1` as the molecule, how does the inhibition read?
Answer: inactive: -5.8%

Question: Which inhibition does the source give for `O=C(NCC1(N2CCCCC2)CCCCC1)c1cccc(Br)c1` here?
Answer: inactive: -20.5%

Question: How did the inhibition turn out when `CCN1CCCC(OC(=O)C2(O)c3ccccc3C=Cc3ccccc32)C1` (stereo unspecified) was run?
Answer: inactive: 27.4%

Question: How did the inhibition turn out when `Cc1cc(C(=O)NCC2(N3CCCCC3)CCCCC2)ccc1[N+](=O)[O-]` was run?
Answer: inactive: -14.9%

Question: Which inhibition does the source give for `COc1ccc(C(=O)NCC2(N(C)C)CCCCC2)cc1` here?
Answer: inactive: 5.92%

Source: PubChem BioAssay AID651957 (The Scripps Research Institute Molecular Screening Center, 2012)
